In ChEMBL document CHEMBL3763070, “Development of CINPA1 analogs as novel and potent inverse agonists of constitutive androstane receptor” (Eur J Med Chem, 2016):

Target: T1, Nuclear receptor subfamily 1 group I member 3 (Homo sapiens, UniProt Q14994)
T1 sequence (Q14994 whole entry): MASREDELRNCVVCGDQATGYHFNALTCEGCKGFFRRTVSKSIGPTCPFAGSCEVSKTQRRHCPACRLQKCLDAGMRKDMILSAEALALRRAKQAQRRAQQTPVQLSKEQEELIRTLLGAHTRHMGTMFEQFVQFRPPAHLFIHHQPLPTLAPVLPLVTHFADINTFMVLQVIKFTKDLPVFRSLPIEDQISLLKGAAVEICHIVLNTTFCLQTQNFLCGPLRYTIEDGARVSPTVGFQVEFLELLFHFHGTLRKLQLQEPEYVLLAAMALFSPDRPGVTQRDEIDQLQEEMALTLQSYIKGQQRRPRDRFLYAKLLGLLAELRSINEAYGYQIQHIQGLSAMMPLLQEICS
Assay: Inverse agonist activity at GST tagged-human CAR-LBD assessed as reduction in fluorescein-PGC1 alpha coactivator recruitment after 1 hr by TR-FRET assay

With `CCOC(=O)Nc1ccc2c(c1)N(C(=O)CN1C3CCC1CC3)c1ccccc1CC2` the IC50 was 1410 nM.
